What was measured:
[1] = target: T1, human apelin receptor (AGTRL1) (Homo sapiens, UniProt P35414); assay: PathHunter GPCR internalisation assay in U2OS cells; format: cell-based; details: U2OS cells overexpressing human apelin receptor, 90 mins, n = 3; read-out: pD2 (converted)
T1 construct: host or cells: U2OS
T1 sequence (P35414 1-380): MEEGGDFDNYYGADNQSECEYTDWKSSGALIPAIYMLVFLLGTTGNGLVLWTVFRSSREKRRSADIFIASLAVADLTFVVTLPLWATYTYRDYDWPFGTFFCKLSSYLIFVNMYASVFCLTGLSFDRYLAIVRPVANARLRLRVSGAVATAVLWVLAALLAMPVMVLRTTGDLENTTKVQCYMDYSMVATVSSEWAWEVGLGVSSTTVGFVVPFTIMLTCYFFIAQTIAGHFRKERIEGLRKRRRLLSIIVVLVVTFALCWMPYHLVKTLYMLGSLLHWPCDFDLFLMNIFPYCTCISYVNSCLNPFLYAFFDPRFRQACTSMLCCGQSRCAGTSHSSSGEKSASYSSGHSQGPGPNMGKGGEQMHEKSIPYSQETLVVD

[2] = target: T2, apelin receptor (Homo sapiens, UniProt P35414); assay: Dynamic mass redistribution assay in CHO-APLNR cells; format: cell-based; set-up: host or cells: CHO-K1; details: read-out: pD2 (converted)
T2 sequence (P35414 1-380): T1 sequence (P35414 1-380)

[3] = target: T2, apelin receptor; assay: Fluorescent ligand binding (saturation, specificity, competition) in CHO-APLNR cells by high content imaging; set-up: host or cells: CHO-K1
[4] = target: T2, apelin receptor; assay: Radioligand competition binding against [125I]-apelin-13 in human left ventricle homogenate; set-up: Surgical samples of human left ventricle (HLV) tissue were obtained with informed consent; from tissue; host or cells: human left ventricle homogenate; details: competition against 0.1 nM [125I]-apelin-13, human left ventricle homogenate, 1.5 mg/mL protein

Work on `CSCC[C@H](NC(=O)[C@H](CS)NC(=O)[C@H](CCCNC(=N)N)NC(=O)[C@H](CCCNC(=N)N)NC(=O)[C@@H](N)CCC(N)=O)C(=O)N1CCC[C@H]1C(=O)N[C@@H](CC(C)C)C(=O)N[C@@H](Cc1c[nH]cn1)C(=O)N[C@@H](CO)C(=O)N[C@@H](CCCNC(=N)N)C(=O)N[C@H](C(=O)N1CCC[C@H]1C(=O)N[C@@H](Cc1ccccc1)C(=O)N1CCC[C@H]1C(=O)O)C(C)C` [ELA-14, reference compound] yielded an EC50 [1] of 2.14 nM, an EC50 [2] of 15.5 nM and a Ki [3] of 282 nM. The Ki [4] was 4.68 nM.

— paper PMC10034064, “Expanding the apelin receptor pharmacological toolbox using novel fluorescent ligands” (Frontiers in Endocrinology, 2023)
